From EP0973746B1, “SUBSTITUTED 3-CYANO QUINOLINES” (Wyeth Holdings Corporation, priority 1997, dated 1998)

By UniProt entry, the sequences of proteins in these tests, tags left out. Residues count along the entry.
UniProt P29317, 24-976, species assumed: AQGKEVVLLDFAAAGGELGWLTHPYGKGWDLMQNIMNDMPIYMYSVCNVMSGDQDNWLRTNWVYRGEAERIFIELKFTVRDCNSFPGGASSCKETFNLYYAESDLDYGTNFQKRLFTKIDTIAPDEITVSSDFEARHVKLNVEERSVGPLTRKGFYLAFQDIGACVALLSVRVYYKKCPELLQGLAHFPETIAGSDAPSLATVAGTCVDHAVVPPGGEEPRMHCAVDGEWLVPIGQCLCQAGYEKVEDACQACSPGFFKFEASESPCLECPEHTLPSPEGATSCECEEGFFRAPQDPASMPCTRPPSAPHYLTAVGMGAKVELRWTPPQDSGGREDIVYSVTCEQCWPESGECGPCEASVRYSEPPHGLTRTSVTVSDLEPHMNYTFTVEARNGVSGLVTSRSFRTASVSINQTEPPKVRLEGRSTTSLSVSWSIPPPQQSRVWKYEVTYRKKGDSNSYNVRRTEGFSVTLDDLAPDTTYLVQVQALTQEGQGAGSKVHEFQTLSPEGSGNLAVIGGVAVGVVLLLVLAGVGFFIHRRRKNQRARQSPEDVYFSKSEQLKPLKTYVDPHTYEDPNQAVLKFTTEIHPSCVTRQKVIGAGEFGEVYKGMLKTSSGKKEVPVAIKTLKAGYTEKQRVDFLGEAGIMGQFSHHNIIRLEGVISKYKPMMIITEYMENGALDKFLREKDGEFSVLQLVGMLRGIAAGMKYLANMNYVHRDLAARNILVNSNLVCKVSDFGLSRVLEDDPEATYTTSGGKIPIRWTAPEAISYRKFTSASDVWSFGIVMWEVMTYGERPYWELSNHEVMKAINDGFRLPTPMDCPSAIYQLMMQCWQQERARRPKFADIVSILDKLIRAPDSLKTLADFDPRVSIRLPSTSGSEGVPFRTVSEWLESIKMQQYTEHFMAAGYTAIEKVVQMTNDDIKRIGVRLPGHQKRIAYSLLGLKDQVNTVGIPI

Target: Epithelial Cell Kinase (ECK) (Homo sapiens, UniProt P29317)
Type: biochemical
Details: pH 7.2; nonradioactive format

## 4-(4-Chloro-2-fluoro-phenylamino)-5,8-dimethoxy-quinoline-3-carbonitrile [Example 238]
  IC50: > 30.3 µM
